# Antibody variant affinities, Ab-91 heavy chain, assay 2

Values reported by Engelhart et al. 2022, doi:10.1038/s41597-022-01779-4 (FLAb copy).

The target is the same throughout: PDVDLGDISGINAS, from the HR2 region of SARS-CoV-2 spike.

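The starting antibody came from a phage panning campaign against this peptide. Library AAYL51 holds single substitutions and randomly drawn double and triple substitutions in the CDRs. AlphaSeq pools MATa yeast showing the antibodies with MATalpha yeast showing the peptide. Binding brings cells together so that they mate, and sequencing counts the barcode pairs among the diploids. Each replicate has its own calibration line, from reference interactions of the BCL2 family. Mating was done three times.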

The variants keep the light chain, the linker and the frameworks of Ab-91 (scFv order VL, a 15-residue (Gly4Ser)3 linker, VH).
VL: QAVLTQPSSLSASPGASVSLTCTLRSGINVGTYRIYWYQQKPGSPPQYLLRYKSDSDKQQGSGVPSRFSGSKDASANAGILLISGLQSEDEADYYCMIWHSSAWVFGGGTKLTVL
VH: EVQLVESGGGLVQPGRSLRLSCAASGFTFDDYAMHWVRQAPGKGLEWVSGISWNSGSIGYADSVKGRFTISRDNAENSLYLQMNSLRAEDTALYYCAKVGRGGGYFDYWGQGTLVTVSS

Substitutions are numbered in sequence along the VH above, starting at 1 (not Kabat). Every variant below is changed at G50 of the VH (sequential numbering). Values are apparent Kd, the geometric mean of the replicates that gave a signal; lower means stronger binding. Where no diploid with the target was found in any replicate, the entry reads "nd": below detection, most likely a poor binder, though not proof of it.

- G50V G56S = nd (0 of 3 replicates)
- H35T G50E D107G = nd (0 of 3 replicates)
- A33K G50C G104K = 17 µM (2 of 3 replicates)
- G26V G50K S57H = nd (0 of 3 replicates)
- G50D S52F = nd (0 of 3 replicates)
- D30G G50S G100T = 75 µM (2 of 3 replicates)
- G50E G103I G104P = nd (0 of 3 replicates)
- Y32G G50W A61W = 29 µM (1 of 3 replicates)
- G50L S55N D62P = 230 µM (3 of 3 replicates)
- G50W N54Y F106K = 95 µM (2 of 3 replicates)
- D30R G50Y G56T = 99 µM (3 of 3 replicates)
- G50R S57V G104I = nd (0 of 3 replicates)
- F27N Y32G G50D = 61 µM (2 of 3 replicates)
- G50D A61T K65A = nd (0 of 3 replicates)
- F27Q G50I S52P = 26 µM (3 of 3 replicates)
- F29I G50D D107E = 15 µM (1 of 3 replicates)
- T28K G50L A61T = nd (0 of 3 replicates)
- T28D G50L G104D = nd (0 of 3 replicates)
- G50R S52R G56C = 490 µM (3 of 3 replicates)
- G50C I58F = nd (0 of 3 replicates)
- G50I I58P D62I = 9.3 µM (1 of 3 replicates)
- G26M G50C F106N = nd (0 of 3 replicates)
- D30W G50F V64N = 6.2 µM (2 of 3 replicates)
- G50C N54Y S63N = nd (0 of 3 replicates)
- G50S S57P I58V = nd (0 of 3 replicates)
- G50Y G104I Y105P = 400 µM (2 of 3 replicates)
- G50N S52R K65V = nd (0 of 3 replicates)
- T28Q G50R D62L = nd (0 of 3 replicates)
- G50M N54T = nd (0 of 3 replicates)
- A33E G50W K65F = 97 µM (3 of 3 replicates)
- A33G G50M Y60E = nd (0 of 3 replicates)
- G50C G104V = 18 µM (1 of 3 replicates)
- G50W R101H F106Q = nd (0 of 3 replicates)

The 3 strongest on average among those seen in every replicate, once more:

changes,Kd,replicates with signal
F27Q G50I S52P,26 µM,3/3
A33E G50W K65F,97 µM,3/3
D30R G50Y G56T,99 µM,3/3

Empty control strains, which show no peptide, gave a signal in 21% of pairings with library AAYL51; the median was 34 µM and 95% of these signals were weaker than 1.8 µM. No background was subtracted. For reference, the parent read 72 nM as the reference entry and 7.5 nM as a member of this library.